This note sets out measurements from ChEMBL document CHEMBL5620426, “Discovery of 3-(1H-benzo[d]imidazole-2-yl)-1H-pyrazol-4 -amine derivatives as novel and potent syk inhibitors for the treatment of hematological malignancies” (Eur J Med Chem, 2023).

This test has as its target Tyrosine-protein kinase SYK (Homo sapiens, UniProt P43405). Briefly: Inhibition of Syk (unknown origin) preincubated for 20 mins followed by 33P-gamma-ATP measured after 120 mins by HotSpot assay.

As to `c1cn2cc(-c3ccc4cn[nH]c4c3)nc(Nc3ccc(N4CCOCC4)cc3)c2n1` [ENTOSPLETINIB], half-maximal inhibition (IC50) was put at 10.3 nM. In other words, the double-digit nanomolar range.
